Measurements from patent US20220380444A1.

Target: human complement protein C5 (human) (UniProt P01031)
Assay: cell-based or functional assay

## Crovalimab (original name SKY59) (antibody)
  50% Inhibitory Dose, classical pathway haemolysis assay: 212 ng/mL
  Haemolytic Units (HU), classical pathway haemolysis assay: 49.9 HU
